# From ChEMBL document CHEMBL1201862, “PubChem BioAssay data set” (2004)
# Protein sequences, listed by entry. Tags and fused reporters are not part of them.
# UniProt Q92830, whole entry, looked up: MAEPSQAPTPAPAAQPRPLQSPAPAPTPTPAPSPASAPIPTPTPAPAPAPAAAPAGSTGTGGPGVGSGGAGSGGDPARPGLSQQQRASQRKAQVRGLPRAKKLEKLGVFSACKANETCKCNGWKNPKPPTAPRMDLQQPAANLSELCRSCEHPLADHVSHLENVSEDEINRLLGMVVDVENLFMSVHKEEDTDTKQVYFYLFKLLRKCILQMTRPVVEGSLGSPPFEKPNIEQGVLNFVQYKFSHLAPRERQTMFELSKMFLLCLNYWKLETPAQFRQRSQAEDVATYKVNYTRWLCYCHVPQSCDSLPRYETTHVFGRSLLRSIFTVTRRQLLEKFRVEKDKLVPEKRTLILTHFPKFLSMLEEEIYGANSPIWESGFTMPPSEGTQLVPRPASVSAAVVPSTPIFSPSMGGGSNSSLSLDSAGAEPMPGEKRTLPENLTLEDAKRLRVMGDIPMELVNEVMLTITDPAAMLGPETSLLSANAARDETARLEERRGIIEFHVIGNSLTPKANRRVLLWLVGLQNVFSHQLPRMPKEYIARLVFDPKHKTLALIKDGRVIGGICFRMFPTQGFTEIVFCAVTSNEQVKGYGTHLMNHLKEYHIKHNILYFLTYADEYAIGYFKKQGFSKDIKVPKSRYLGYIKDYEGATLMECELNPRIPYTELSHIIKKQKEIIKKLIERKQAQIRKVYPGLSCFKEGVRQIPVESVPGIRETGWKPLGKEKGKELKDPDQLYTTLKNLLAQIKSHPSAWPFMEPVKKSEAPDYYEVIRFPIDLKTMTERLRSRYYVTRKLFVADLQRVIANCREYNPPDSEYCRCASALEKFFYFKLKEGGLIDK
# Only a part is listed here, and it is no random draw. Only a part of the results of these assays is listed, not drawn at random. Active and inactive are the calls of the source. The rule behind the calls is not given here.
# Molecular target: Histone acetyltransferase KAT2A (Homo sapiens) (UniProt Q92830)
# Assay: qHTS Assay for Inhibitors of GCN5L2. [Related pubchem assays (depositor defined):AID504398]
# Assay type: functional
row,SMILES,Potency
1,CC[n+]1c(/C=C/N(C)c2ccccc2)oc2ccc(Cl)cc21,inactive
